Results published in ChEMBL document CHEMBL1151692, “Substituted hippurates and hippurate analogs as substrates and inhibitors of peptidylglycine alpha-hydroxylating monooxygenase (PHM)” (Bioorg Med Chem, 2008).

Assays:
[1] = molecular target: T1, Peptidylglycine alpha-amidating monooxygenase (Rattus norvegicus) (UniProt P14925); assay: (§1) Activity of rat recombinant peptidylglycine alpha-amidating monooxygenase assessed as stimulation of oxygen consumption
T1 sequence (whole entry): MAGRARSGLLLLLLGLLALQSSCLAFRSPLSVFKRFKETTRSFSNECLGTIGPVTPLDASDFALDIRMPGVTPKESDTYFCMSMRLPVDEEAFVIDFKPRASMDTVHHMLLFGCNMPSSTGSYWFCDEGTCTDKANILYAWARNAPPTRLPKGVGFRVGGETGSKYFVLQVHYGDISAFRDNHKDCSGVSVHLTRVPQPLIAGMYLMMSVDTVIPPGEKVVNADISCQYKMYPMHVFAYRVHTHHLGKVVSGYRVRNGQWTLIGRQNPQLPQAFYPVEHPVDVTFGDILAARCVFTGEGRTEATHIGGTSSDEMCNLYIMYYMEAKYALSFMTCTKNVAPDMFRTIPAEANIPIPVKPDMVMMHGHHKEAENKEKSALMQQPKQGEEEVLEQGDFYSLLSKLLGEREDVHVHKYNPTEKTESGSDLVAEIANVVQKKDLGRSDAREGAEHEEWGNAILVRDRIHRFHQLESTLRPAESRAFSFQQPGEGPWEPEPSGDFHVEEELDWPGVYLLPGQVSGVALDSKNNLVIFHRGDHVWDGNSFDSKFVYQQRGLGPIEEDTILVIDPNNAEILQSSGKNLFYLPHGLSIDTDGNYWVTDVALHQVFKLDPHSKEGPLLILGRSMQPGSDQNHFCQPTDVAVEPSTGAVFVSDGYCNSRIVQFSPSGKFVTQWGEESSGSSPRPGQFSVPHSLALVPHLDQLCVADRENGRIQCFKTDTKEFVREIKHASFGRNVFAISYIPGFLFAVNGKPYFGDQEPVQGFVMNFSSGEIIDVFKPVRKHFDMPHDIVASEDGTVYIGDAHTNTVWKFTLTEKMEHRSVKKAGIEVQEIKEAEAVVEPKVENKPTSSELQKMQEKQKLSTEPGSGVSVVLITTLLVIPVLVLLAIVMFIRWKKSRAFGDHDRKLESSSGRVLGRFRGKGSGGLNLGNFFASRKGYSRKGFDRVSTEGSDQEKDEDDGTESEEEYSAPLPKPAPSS
Method in brief: (§2)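 Recombinant rat type A medullary thyroid carcinoma PAM (bifunctional), 15–50 μg, in 100 mM MES/NaOH pH 6.0, 30 mM NaCl, 1% ethanol, 0.001% Triton X-100, 10 μg/mL catalase, 1.0 μM Cu(NO3)2, 5.0 mM ascorbate, ~200 μM O2, 37 °C. Substrate generally 0.3–5.0 KM,app. Initial O2 consumption rates read by oxygen monitor and fit to Michaelis–Menten.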

[2] = molecular target: T1, Peptidylglycine alpha-amidating monooxygenase (Rattus norvegicus); assay: Ratio of Vm(app) to Km(app) for rat recombinant peptidylglycine alpha-amidating monooxygenase relative to hippuric acid; method in brief: as §2
[3] = molecular target: T1, Peptidylglycine alpha-amidating monooxygenase (Rattus norvegicus); assay: Ratio of Vm(app) to Km(app) for rat recombinant peptidylglycine alpha-amidating monooxygenase; method in brief: as §2
[4] = molecular target: peptidylglycine alpha-amidating monooxygenase (Rattus norvegicus) (UniProt P14925); assay: Inhibition of rat peptidylamidoglycolate lyase assessed as ascorbate-independent dealkylation of alpha-hydroxy-hipurate; set-up: concentration or dose not given beside the values; conditions: concentration not given here
[5] = substrate: O=C(O)CNC(=O)CCCc1ccccc1; assay: as §1; method in brief: as §2
[6] = substrate: O=C(O)CNC(=O)Cc1ccccc1; assay: as §1; method in brief: as §2
[7] = substrate: O=C(O)CNC(=O)c1cccs1; assay: as §1; method in brief: as §2
[8] = substrate: O=C(O)CNC(=O)c1c(F)cccc1F; assay: as §1; method in brief: as §2
[9] = substrate: CC(C)[C@H](NC(=O)[C@H](Cc1ccc(O)cc1)NS(=O)(=O)c1cccc2c(N(C)C)cccc12)C(=O)NCC(=O)O; assay: as §1; method in brief: as §2
[10] = substrate: O=C(O)CNC(=O)c1cccnc1; assay: as §1; method in brief: as §2
[11] = substrate: O=C(O)CNC(=O)CSc1ccccc1; assay: as §1; method in brief: as §2
[12] = substrate: C[C@@H](NC(=O)OCc1ccccc1)C(=O)O; assay: as §1; method in brief: as §2

Molecule: O=C(O)CNC(=O)Cc1ccccc1
- Vmax(app) [1]: 7.4 s⁻¹
- Activity [2]: 7.4
- Ratio [3]: 4.6 ×10⁴ /M/s

Molecule: CCOC(=O)CNC(=O)[C@H](CS)NC(=O)CC[C@H](N)C(=O)O
- inhibition [4]: < 5%

Molecule: O=C(O)CCC(=O)c1ccccc1
- inhibition [4]: < 5%

Molecule: O=C(O)CNC(=O)c1cccnc1
- Vmax(app) [1]: 8 s⁻¹
- Ratio [3]: 4.2 ×10³ /M/s

Molecule: C[C@@H](NC(=O)OCc1ccccc1)C(=O)O
- Vmax(app) [1]: 1.4 s⁻¹
- Ratio [3]: 41 M⁻¹ s⁻¹

B1: Peptidylglycine alpha-amidating monooxygenase (Rattus norvegicus), P14925 (protein)
chain: MAGRARSGLLLLLLGLLALQSSCLAFRSPLSVFKRFKETTRSFSNECLGTIGPVTPLDASDFALDIRMPGVTPKESDTYFCMSMRLPVDEEAFVIDFKPRASMDTVHHMLLFGCNMPSSTGSYWFCDEGTCTDKANILYAWARNAPPTRLPKGVGFRVGGETGSKYFVLQVHYGDISAFRDNHKDCSGVSVHLTRVPQPLIAGMYLMMSVDTVIPPGEKVVNADISCQYKMYPMHVFAYRVHTHHLGKVVSGYRVRNGQWTLIGRQNPQLPQAFYPVEHPVDVTFGDILAARCVFTGEGRTEATHIGGTSSDEMCNLYIMYYMEAKYALSFMTCTKNVAPDMFRTIPAEANIPIPVKPDMVMMHGHHKEAENKEKSALMQQPKQGEEEVLEQGDFYSLLSKLLGEREDVHVHKYNPTEKTESGSDLVAEIANVVQKKDLGRSDAREGAEHEEWGNAILVRDRIHRFHQLESTLRPAESRAFSFQQPGEGPWEPEPSGDFHVEEELDWPGVYLLPGQVSGVALDSKNNLVIFHRGDHVWDGNSFDSKFVYQQRGLGPIEEDTILVIDPNNAEILQSSGKNLFYLPHGLSIDTDGNYWVTDVALHQVFKLDPHSKEGPLLILGRSMQPGSDQNHFCQPTDVAVEPSTGAVFVSDGYCNSRIVQFSPSGKFVTQWGEESSGSSPRPGQFSVPHSLALVPHLDQLCVADRENGRIQCFKTDTKEFVREIKHASFGRNVFAISYIPGFLFAVNGKPYFGDQEPVQGFVMNFSSGEIIDVFKPVRKHFDMPHDIVASEDGTVYIGDAHTNTVWKFTLTEKMEHRSVKKAGIEVQEIKEAEAVVEPKVENKPTSSELQKMQEKQKLSTEPGSGVSVVLITTLLVIPVLVLLAIVMFIRWKKSRAFGDHDRKLESSSGRVLGRFRGKGSGGLNLGNFFASRKGYSRKGFDRVSTEGSDQEKDEDDGTESEEEYSAPLPKPAPSS
- Km [5]: 160 µM
- Km [6]: 160 µM
- Km [7]: 1600 µM
- Km [8]: 19000 µM
- Km [9]: 3.5 µM
- Km [10]: 1900 µM
- Km [11]: 190 µM
- Km [12]: 35000 µM
